This is a selection; strong and weak results do not stand in their true shares. Active and inactive are the calls of the source. How the source made its calls: active means hit-call score of the fitted dose curve at least 0.9, where 1 is the maximum; inactive means score below 0.9.
Assay: ATG_PPRE_CIS: Attagene CIS-FACTORIAL HepG2 Assay for human Peroxisome Proliferator-activated Response Element (PPRE) (AID 2282958)
Conditions: HepG2 PPRE cis-element reporter, Attagene transcription factor profiling; actives raise or lower the signal

SMILES | outcome | AC50
O=C(NC(=O)c1c(F)cccc1F)Nc1cc(Cl)c(OC(F)(F)C(F)C(F)(F)F)cc1Cl (stereo unspecified) | inactive | –
C=C(C)C(=O)OCC(CC)CCCC (stereo unspecified) | inactive | –
CCOP(=S)(OCC)Oc1nc(Cl)n(C(C)C)n1 | inactive | –
OCC(c1ccc(Cl)cc1)c1ccc(Cl)cc1 | inactive | –
CN1C[C@H](C(=O)N[C@]2(C)O[C@@]3(O)[C@@H]4CCCN4C(=O)[C@H](Cc4ccccc4)N3C2=O)C=C2c3cccc4[nH]cc(c34)C[C@H]21 | – | active: 14.1 µM
Cc1ccc(N=C=O)cc1N=C=O | inactive | –
O=[N+]([O-])c1c2ccccc2cc2ccccc12 | – | active: 1.93 µM
O=S1OCC2C(CO1)C1(Cl)C(Cl)=C(Cl)C2(Cl)C1(Cl)Cl (stereo unspecified) | inactive | –
Nc1ccccc1C(=O)Oc1ccc2ccccc2c1 | inactive | –
c1ccc2c(c1)CCCC2 | inactive | –
N#Cc1ccccn1 | inactive | –
O=C(O)c1cc(Oc2ccc(C(F)(F)F)cc2Cl)ccc1[N+](=O)[O-] | – | active: 30.1 µM
Clc1cccc(C(Cl)(Cl)Cl)n1 | inactive | –
CCC(C)n1c(=O)[nH]c(C)c(Br)c1=O (stereo unspecified) | inactive | –
Fc1ccc(C2(Cn3cncn3)OC2c2ccccc2Cl)cc1 (stereo unspecified) | inactive | –
CCOc1cccc(C2(N3CCN(c4ccccc4)CC3)CCC(C)CC2)c1 (stereo unspecified) | inactive | –
CC(=O)C=C(C)C | inactive | –
CC(C)(C)C(O)C(Oc1ccc(Cl)cc1)n1cncn1 (stereo unspecified) | inactive | –
O=C(CCN1CC1)OCC(CO)(COC(=O)CCN1CC1)COC(=O)CCN1CC1 | inactive | –
O=c1ccc(=O)[nH][nH]1 | inactive | –
COc1cc(OC)nc(Sc2cccc(Cl)c2C(=O)O)n1 | – | active: 24.7 µM
